Consider 1 substance from patent publication US20050202089A1, “Sustained-release pharmaceutical formulations containing mizolastine” (SANOFI-SYNTHELABO, priority 1996, published 2005).

The conditions of this data set: weak base.

Regarding “2-[[1-[1-[(4-fluorophenyl)methyl]-1H-benzimidazol-2-yl]piperid-4-yl]methylamino]-pyrimidin-4-ol [mizolastine]”, the pK worked out at 5.6.
